Measurements taken from US20060194819A1, “Activation specific inhibitors of nf-kb and method of treating inflammatory processes in cardio-vascular diseases” (PROCORDE GMBH, priority 2003, published 2006).

Protein sequences, listed by entry. Tags and fused reporters are not part of them.
UniProt O14920, whole entry: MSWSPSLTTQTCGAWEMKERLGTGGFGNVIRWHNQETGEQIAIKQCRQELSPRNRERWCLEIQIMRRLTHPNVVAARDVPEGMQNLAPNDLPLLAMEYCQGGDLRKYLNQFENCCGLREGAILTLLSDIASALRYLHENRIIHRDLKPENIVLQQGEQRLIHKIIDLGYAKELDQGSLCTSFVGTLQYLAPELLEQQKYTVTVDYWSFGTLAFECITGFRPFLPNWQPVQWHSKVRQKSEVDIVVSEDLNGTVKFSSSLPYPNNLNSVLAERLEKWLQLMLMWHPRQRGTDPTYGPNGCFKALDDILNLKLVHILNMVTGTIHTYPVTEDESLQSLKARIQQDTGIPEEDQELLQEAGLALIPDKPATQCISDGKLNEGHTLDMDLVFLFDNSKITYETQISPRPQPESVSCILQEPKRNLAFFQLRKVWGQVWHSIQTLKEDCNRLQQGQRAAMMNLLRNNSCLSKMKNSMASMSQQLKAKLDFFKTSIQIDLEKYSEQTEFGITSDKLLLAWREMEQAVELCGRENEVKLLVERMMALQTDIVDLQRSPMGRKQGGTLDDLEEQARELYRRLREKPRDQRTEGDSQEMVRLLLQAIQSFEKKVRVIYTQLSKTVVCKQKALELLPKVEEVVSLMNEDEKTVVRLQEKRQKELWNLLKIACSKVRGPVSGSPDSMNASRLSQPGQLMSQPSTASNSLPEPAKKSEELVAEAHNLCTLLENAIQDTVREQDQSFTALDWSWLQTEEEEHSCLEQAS
UniProt O15111, whole entry: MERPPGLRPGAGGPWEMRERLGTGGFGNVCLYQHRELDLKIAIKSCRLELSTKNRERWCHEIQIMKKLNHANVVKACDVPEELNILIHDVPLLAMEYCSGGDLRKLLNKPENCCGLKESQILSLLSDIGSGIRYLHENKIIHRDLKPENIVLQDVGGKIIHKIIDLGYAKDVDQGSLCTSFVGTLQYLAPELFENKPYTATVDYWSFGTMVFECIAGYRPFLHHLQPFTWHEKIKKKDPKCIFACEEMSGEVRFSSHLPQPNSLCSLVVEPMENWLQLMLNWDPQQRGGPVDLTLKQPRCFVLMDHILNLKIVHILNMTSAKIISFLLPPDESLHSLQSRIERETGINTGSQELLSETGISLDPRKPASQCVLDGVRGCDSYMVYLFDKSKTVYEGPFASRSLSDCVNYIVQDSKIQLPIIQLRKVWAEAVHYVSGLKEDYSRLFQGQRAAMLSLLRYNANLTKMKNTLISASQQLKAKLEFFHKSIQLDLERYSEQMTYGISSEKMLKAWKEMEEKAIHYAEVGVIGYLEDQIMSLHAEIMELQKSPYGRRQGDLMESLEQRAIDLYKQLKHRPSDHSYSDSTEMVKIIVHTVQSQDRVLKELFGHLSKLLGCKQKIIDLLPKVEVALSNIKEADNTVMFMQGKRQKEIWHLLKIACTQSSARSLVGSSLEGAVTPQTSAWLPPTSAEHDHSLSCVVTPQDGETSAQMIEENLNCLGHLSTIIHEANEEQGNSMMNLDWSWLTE
UniProt Q9Y6K9, whole entry: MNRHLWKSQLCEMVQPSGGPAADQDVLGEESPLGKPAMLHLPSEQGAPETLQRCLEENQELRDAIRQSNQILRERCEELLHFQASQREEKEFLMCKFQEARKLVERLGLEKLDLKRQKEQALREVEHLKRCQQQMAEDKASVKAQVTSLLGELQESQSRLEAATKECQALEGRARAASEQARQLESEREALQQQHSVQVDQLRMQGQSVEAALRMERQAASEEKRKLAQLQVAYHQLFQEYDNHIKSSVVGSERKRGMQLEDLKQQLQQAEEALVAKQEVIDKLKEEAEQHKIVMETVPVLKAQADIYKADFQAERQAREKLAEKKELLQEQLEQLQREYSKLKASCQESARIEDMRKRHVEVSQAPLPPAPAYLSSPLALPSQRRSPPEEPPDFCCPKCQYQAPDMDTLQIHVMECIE

Assays:
IKK-complex = IKK-complex (Homo sapiens, UniProt O14920+O15111+Q9Y6K9); assay: In vitro/cell free kinase assay: IKK-complex immunoprecipitated from TNF alpha stimulated HeLa cells, drugs added afterwards, alpha screen; conditions: increasing concentrations on isolated IKK complex
Method: In vitro/cell free kinase assay protocol: HeLa cells were maintained in Dulbecco's modified Eagle's medium (Invitrogen) supplemented with 10% fetal bovine serum, 2 mM L-glutamine, penicillin (50 units/ml) and streptomycin (50 μg/ml). 24 h before treatment with TNF alpha HeLa cells were plated at a density of 1×10^7 per well in 175-mm cell culture dishes to 90% confluences.
The cells were stimulated with 20 ng/ml TNF alpha (Roche) without drugs. After 7 min the cells were washed twice with ice cold PBS followed by scraping and transferring into a 1.5 ml micro centrifuge tube. […] 6.6 μl of detection-buffer (20 mM Hepes pH 7.5, 100 mM NaCl, 1% Tween, 0.1 mM BSA, 50 μg/ml Protein A-Acceptor beads, 250 μg/ml Streptavidin-Donor beads (both Perkin-Elmer), 4 nM anti-phospho-IKBα-antibody (Santa Cruz Biotechnology) was dispensed to each well. After incubation for 1.5 h the plate was measured by alpha screen reader (Perkin Elmer).

IKK alpha/beta = IKK alpha/beta (Homo sapiens, UniProt O14920+O15111); assay: Degradation of the IKK-complex in HeLa cells, Western blot with anti-IKK alpha/beta-antibody; conditions: for level of IKK alpha/beta protein: various concentrations, TNF alpha 20 ng/ml
Method: 3×10^6 HeLa cells were incubated with different drugs at increasing concentrations for 1 h, washed twice with PBS and stimulated with 20 ng/ml TNF alpha (Roche). After 7 min the cells were washed twice with ice cold PBS followed by scraping and transferring into a 1.5 ml microcentrifuge tube. (After centrifugation by 2000 rpm for 2 min by 4° C. the PBS supernatant was removed and 200 μl Lyse-buffer (10 mM Hepes, pH 7.9, 0.1% NP40, 300 mM Sucrose, 10 mM KCl, 15 mM MgCl2, 1 mM DTT, 0.5 mM PMSF and antipain, aprotinin, leupeptin each 0.75 μg/ml (Sigma) was added to the pellet. The resuspented pellet was incubated on ice for 5 min and centrifuged at 13000 g for 30s.)
Cytosolic extracts were isolated as described earlier.
30 μL cytosolic extract, approximately extract from 4×10^5 cells, was loaded to a 4-20% polyacrylamid gels (BioRad). After electrophoresis the proteins were transferred to a nitrocellulose membrane using the wet blotting technique. First the membrane was blocked with Roti-Block (Roth) and afterwards incubated with polyclonal antibodies against IKK alpha/beta or NEMO (both Santa Cruz Biotechnology, used at 1:200 dilution). This incubation was followed by the appropriate horseradish peroxidase-conjugated secondary antibody (Dianova) at 1:10000 dilution. Antibody binding was visualized on x-ray film using the Western blot Chemiluminescent Reagent Detection Kit (Santa Cruz).

HeLa cells = assay: Cell permeability: compound in the cytosolic extract of HeLa cells, signal at 450 nm in Elisa reader; conditions: 100 μM, 1 h
Method: 3×10^6 HeLa cells were incubated with compound 73 at 100 μM for 1 h. After washing with PBS three times 120 μl hypotonic buffer (10 mM NaCl, 10 mM Hepes ph 7.5) was added to the cell pellet and frozen in liquid N2 for cell lysis. After centrifugation at 16000 g for 5 min the supernatant was measured by 450 nm in Elisa and amount of compound 73 was compared with a standard concentration of this substances.

**Q.** CCOC(=O)C1=C(C)N=c2sc(=Cc3ccc(-c4cccc(C(=O)O)c4)o3)c(=O)n2C1c1cc(OC)c(OC)cc1Br (stereo not shown) was tested. Which “inhibition of IKK activity in cell-free assay” value (IKK-complex) did it give?
**A.** The value was “dose-dependently inhibited”.

**Q.** What about the IKKα/β degradation (IKK alpha/beta; 33 μM and 100 μM) of the same compound?
**A.** The IKKα/β degradation was “obvious only at higher concentrations”.

**Q.** What about the “IKKα/β decomposition at the highest concentration used” value (IKK alpha/beta; highest concentration used) of the same compound?
**A.** The value was “No complete decomposition”.

**Q.** And the “level of IKK alpha/beta protein” value (IKK alpha/beta; listed as COM 73)?
**A.** The value was “concentration-dependently degraded”.

**Q.** What about the “level of IKK alpha/beta protein” value (IKK alpha/beta; listed as compound 73) of the same compound?
**A.** The value was “dose dependently reduced”.

**Q.** What about the cell permeability (HeLa cells) of the same compound?
**A.** The cell permeability was “excellent cell permeability”.

**Q.** What about the “concentration found inside the cells” value (HeLa cells) of the same compound?
**A.** Its value is “approximately 90 μM”.
